For the experiment, the target named is T1, human MOR (Homo sapiens, UniProt P35372).
T1 construct: expressed in transfected cells; host or cells: CHO cells (gift from Prof. Girolamo Calo, Ferrara University)
The experiment is described as follows: Calcium mobilization assay, agonist mode, MOR. It is filed as cell-based. Background: Calcium assays in cells follow changes in intracellular calcium, usually with a dye or a luminescent sensor.

Amino acid sequences for entries named in this document (tags omitted).
UniProt P35372, whole entry: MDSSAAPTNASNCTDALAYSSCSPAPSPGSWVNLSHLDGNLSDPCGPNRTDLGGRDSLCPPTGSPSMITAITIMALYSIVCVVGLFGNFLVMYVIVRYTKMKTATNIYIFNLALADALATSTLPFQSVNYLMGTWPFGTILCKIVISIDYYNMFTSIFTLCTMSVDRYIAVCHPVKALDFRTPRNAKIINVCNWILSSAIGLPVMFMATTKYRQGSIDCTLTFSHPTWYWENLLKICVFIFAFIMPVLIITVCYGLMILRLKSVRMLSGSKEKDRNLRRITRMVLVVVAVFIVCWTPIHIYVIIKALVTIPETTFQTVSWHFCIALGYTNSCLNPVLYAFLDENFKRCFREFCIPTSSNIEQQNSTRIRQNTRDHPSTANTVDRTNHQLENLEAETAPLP

As for `CC[C@H](C)[C@H](NC(=O)[C@H](CCCNC(=N)N)NC(=O)[C@H](CCCNC(=N)N)NC(=O)[C@H](CC(C)C)NC(=O)[C@H](Cc1ccccc1)NC(=O)CNC(=O)CNC(=O)[C@@H](N)Cc1ccc(O)cc1)C(=O)N[C@@H](CCCNC(=N)N)C(=O)N1CCC[C@H]1C(=O)N[C@@H](CCCCN)C(=O)N[C@@H](CC(C)C)C(=O)N[C@@H](CCCCN)C(=O)N[C@@H](Cc1c[nH]c2ccccc12)C(=O)N[C@@H](CC(=O)O)C(=O)N[C@@H](CC(N)=O)C(=O)N[C@@H](CCC(N)=O)C(=O)O` [dynorphin A, reference compound], under “CHO cells co-expressing human MOR and Gαqi5, ratio of peptide Emax to Emax of dermorphin, inactive = inactive up to 10 μM, n ≥ 5”, the “MOR α ± SEM (efficacy, intrinsic activity)” value is recorded as 0.83 ± 0.10.
The EC50 is the concentration needed to bring the measured effect to its halfway point. `C[C@@H](NC(=O)[C@@H](N)Cc1ccc(O)cc1)C(=O)N[C@@H](Cc1ccccc1)C(=O)NCC(=O)N[C@@H](Cc1ccc(O)cc1)C(=O)N1CCC[C@H]1C(=O)N[C@@H](CO)C(N)=O` [dermorphin, reference compound]: the EC50 is 2.19 nM.
